Assay results as given in ChEMBL document CHEMBL5512675, “Design of Selective PARP-1 Inhibitors and Antitumor Studies” (J Med Chem, 2024).

The chains behind the UniProt entries cited, without tags or fusion partners. Where a name states a change or a piece, a line headed by the entry shows the natural chain unless it says otherwise.
UniProt Q9UGN5: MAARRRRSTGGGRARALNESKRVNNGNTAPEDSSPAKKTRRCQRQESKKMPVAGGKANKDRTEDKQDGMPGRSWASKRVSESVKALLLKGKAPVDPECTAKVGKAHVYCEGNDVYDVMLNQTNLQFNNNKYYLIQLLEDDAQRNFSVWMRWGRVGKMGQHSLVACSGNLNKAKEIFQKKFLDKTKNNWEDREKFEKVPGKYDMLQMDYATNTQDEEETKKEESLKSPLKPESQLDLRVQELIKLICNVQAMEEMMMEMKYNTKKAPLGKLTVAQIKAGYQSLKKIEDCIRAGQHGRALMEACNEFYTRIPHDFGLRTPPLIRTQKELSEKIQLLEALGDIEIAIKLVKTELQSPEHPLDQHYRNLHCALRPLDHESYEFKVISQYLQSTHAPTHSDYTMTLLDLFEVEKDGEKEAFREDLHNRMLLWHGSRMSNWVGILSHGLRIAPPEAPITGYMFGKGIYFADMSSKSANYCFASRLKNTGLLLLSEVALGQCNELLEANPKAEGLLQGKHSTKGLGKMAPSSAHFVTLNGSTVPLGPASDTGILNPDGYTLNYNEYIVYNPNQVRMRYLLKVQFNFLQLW

Experiments:
[1] = target: Poly [ADP-ribose] polymerase 2 (Homo sapiens, UniProt Q9UGN5); experiment: Inhibition of GST-tagged human PARP2 at 1 uM incubated for 30 mins by chemiluminescence based UV/visible spectrophotometric analysis relative to control
[2] = Selectivity index, ratio of IC50 for inhibition of recombinant human PARP-1 to IC50 for inhibition of recombinant mouse PARP-2

| Structure (SMILES) | inhibition [1] [%] | Ratio IC50 [2] |
| --- | --- | --- |
| CCc1ccc(C(=O)Oc2c(OC)cc(-c3nc4c(C(N)=O)cccc4[nH]3)c(Br)c2Br)cc1 | 26.7 |  |
| COc1cc(-c2nc3c(C(N)=O)cccc3[nH]2)cc(Br)c1OS(=O)(=O)c1cccc(Br)c1 | < 5 |  |
| COc1cc(-c2nc3c(C(N)=O)cccc3[nH]2)ccc1OS(=O)(=O)c1cccc(Br)c1 | 47.5 |  |
| COc1cc(/C=N/NC(N)=S)c(Br)c(Br)c1OC(=O)c1ccc(CCl)cc1 | 15.5 |  |
| COc1cc(-c2nc3c(C(N)=O)cccc3[nH]2)ccc1OS(=O)(=O)c1ccc(Br)cc1 | 48.5 |  |
| COc1cc(-c2nc3c(C(N)=O)cccc3[nH]2)ccc1OS(=O)(=O)c1c(C)cc(C)cc1C | 45.2 |  |
| COc1cc(-c2nc3c(C(N)=O)cccc3[nH]2)c(Br)c(Br)c1OS(=O)(=O)c1ccc(NC(C)=O)cc1 | 13.4 |  |
| CCCS(=O)(=O)Oc1c(Br)cc(-c2nc3c(C(N)=O)cccc3[nH]2)cc1OC | 58.2 |  |
| COc1cc(-c2nc3c(C(N)=O)cccc3[nH]2)cc(Br)c1OS(=O)(=O)c1c(C)cc(C)cc1C | 27.1 |  |
| COc1cc(/C=N/NC(N)=S)c(Br)c(Br)c1OC(=O)c1ccco1 | 7.35 |  |
| CCCCOc1c(Br)cc(/C=N/NC(N)=S)cc1OC | < 5 |  |
| Cn1cccc1/C=C1\C(=O)NC(=O)c2ccccc21 |  | 100 |
| COc1ccc(S(=O)(=O)Oc2c(Br)cc(-c3nc4c(C(N)=O)cccc4[nH]3)cc2OC)cc1 | 46.8 |  |
| COc1cc(/C=N/NC(N)=S)cc(Br)c1OS(=O)(=O)C(F)(F)F | 18.4 |  |
| CCCS(=O)(=O)Oc1c(OC)cc(/C=N/NC(N)=S)c(Br)c1Br | 23.8 |  |
| COc1cc(-c2nc3c(C(N)=O)cccc3[nH]2)cc(Br)c1OC(=O)C(C)(C)C | 38.4 |  |
| COc1cc(-c2nc3c(C(N)=O)cccc3[nH]2)c(Br)c(Br)c1OC | 38.8 |  |
| COc1cc(/C=N/NC(N)=S)ccc1OS(=O)(=O)C(F)(F)F | 17.1 |  |
| COc1cc(-c2nc3c(C(N)=O)cccc3[nH]2)cc(Br)c1OC(=O)CCBr | 21.2 |  |
